# Earlier results, collected in patent US6255337A, “Anti-first-pass effect compounds and citrus extract” (Bioavailability Systems, L.L.C., priority 1999, dated 2001).
# Conditions: with inhibitors commonly given to humans; in words; cited from earlier work
smiles,measurement,value
Cc1ncc2n1-c1ccc(Cl)cc1C(c1ccccc1F)=NC2 [midazolam],increase of bioavailability by inhibitors,bioavailability is increased by inhibitors
